Amino acid sequences for entries named in this document (tags omitted).
UniProt P33533, whole entry: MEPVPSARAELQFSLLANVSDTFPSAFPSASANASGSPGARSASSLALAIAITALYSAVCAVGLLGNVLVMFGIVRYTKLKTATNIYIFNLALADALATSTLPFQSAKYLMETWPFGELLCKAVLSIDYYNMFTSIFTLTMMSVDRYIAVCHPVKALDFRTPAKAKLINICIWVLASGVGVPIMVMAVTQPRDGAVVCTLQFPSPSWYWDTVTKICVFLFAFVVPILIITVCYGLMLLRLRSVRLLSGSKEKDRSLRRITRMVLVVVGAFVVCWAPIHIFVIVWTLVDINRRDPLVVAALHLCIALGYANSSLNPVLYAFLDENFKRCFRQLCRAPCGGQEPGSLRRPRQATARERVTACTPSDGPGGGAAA
UniProt P33535, whole entry: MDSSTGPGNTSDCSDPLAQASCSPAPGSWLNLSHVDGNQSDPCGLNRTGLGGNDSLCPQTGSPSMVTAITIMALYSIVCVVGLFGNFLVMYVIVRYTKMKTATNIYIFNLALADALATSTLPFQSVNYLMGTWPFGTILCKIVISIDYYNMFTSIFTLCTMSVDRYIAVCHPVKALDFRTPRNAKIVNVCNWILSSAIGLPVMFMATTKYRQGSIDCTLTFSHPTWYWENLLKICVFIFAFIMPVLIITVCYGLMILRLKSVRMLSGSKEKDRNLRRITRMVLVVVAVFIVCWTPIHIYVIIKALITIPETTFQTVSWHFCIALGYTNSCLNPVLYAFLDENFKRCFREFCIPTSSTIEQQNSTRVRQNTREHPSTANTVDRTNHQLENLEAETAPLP

According to ChEMBL document CHEMBL5543159, “Discovery of an Ortho-Substituted N-Cyclopropylmethyl-7α-phenyl-6,14-endoethano-tetrahydronorthebaine Derivative as a Selective and Potent Kappa Opioid Receptor Agonist with Subsided Sedative Effect” (2024):

What was measured:
[1] = Selectivity ratio of Ki for displacement of [3H]DPDPE from rat DOR to Ki for displacement of [3H]U69593 from human KOR
[2] = target: Delta-type opioid receptor (Rattus norvegicus) (UniProt P33533); test: Agonist activity at rat DOR expressed in CHO cell membrane assessed as stimulation of [35S]-GTPgammaS binding by measuring maximum efficacy incubated for 1 hr by liquid scintillation counting assay relative to control; conditions: filed as agonist
[3] = Selectivity ratio of Ki for displacement of [3H]-DAMGO from rat MOR receptor to Ki for displacement of [3H]U69593 from human KOR
[4] = target: Mu-type opioid receptor (Rattus norvegicus) (UniProt P33535); test: Agonist activity at rat MOR expressed in CHO cell membrane assessed as stimulation of [35S]-GTPgammaS binding by measuring maximum efficacy incubated for 1 hr by liquid scintillation counting assay relative to control; conditions: filed as agonist

Row | SMILES | Ratio Ki [1] | Emax [2] [%] | Ratio Ki [3] | Emax [4] [%]
1 | COc1ccc2c3c1O[C@H]1[C@@]4(OC)CC[C@@]5(C[C@@H]4c4ccccc4NCc4ccccc4)[C@@H](C2)N(CC2CC2)CC[C@]315 | 1080 | 213 | 270 | 170
2 | COc1ccc2c3c1O[C@H]1[C@@]4(OC)CC[C@@]5(C[C@@H]4c4ccccc4NC(=O)Cc4ccccc4)[C@@H](C2)N(CC2CC2)CC[C@]315 | 4.5 | 168 | 2.3 | 
